Assay results: patent US20230295159A1, “ATX INHIBITOR, AND PREPARATION METHOD THEREFOR AND USE THEREOF” (SUZHOU ARK BIOPHARMACEUTICAL CO., LTD., priority 2020, published 2023)

System: Chinese hamster ovary cells (CHO-WBL)
Procedure: In the major micronucleus assay, CHO-WBL cells were exposed to at least 3 concentrations of the test object, while vehicle control group and positive control group were set up, with 2 replicated wells for each dose group. In inactivated test system, the administration lasted for 3 and 24 hours, and in S9 activated test system, the exposure to the test object lasted for 3 hours.
When choosing the highest dose for micronucleus frequency assay, the cytotoxicity of dose group of the test object should not substantially exceed 50% of that of the corresponding vehicle control group.
On the premise that the test is valid, the test results are evaluated according to the following criteria:
If the test object simutaneously meets the following criteria, it can be considered as positive:
A significant increase in micronucleus frequency is observed in one or more concentration groups.
If none of the above three points is met, the test object can be considered as negative.

## Mitomycin C
  % binuclear cells containing micronucleus: 19.5%
